Results taken from US12673036B2, “Method of using L-triiodothyronine (T3) for the treatment of tissue hypoxia and sepsis” (UNI-PHARMA KLEON TSETIS PHARMACEUTICAL LABORATORIES S.A., priority 2020, dated 2026).

Test system: critically ill patients with COVID-19 infection

## N[C@@H](Cc1cc(I)c(Oc2ccc(O)c(I)c2)c(I)c1)C(=O)O [T3, L-triiodothyronine]
48 hours
  right ventricular (RV) function: unexpectedly improved RV function
After T3 administration
  Tricuspid Annular Plane Systolic Excursion (TAPSE): upward trend
First 24 hours
  liver function by AST measurements: maintains good patient liver function
  renal function by creatinine levels: maintains normal renal function
First 48 hours
  left ventricular function (left ventricular ejection fraction): maintenance
  troponin levels compared to placebo: tends to decrease
First 48 hours, high dose i.v.
  T3 levels in blood: increased as expected
